US20140037642A1, “METHODS AND COMPOSITIONS RELATING TO INHIBITION OF IGF-1R” (AMGEN INC., priority 2011, published 2014)

Experiments:
[1] = tested on: tumors in human subjects; conditions: in vivo
[2] = tested on: metastatic pancreatic cancer patients; conditions: in vivo
Protocol: Multivariate analysis was performed to evaluate the effect of exposure on OS and PFS adjusting for potential confounding factors using Cox proportional hazard models with a forward selection technique. All baseline factors were initial candidates in the forward selection model. Only the most statistically significant variables were added to the final model after the forward selection process.
The effect of exposure on the incidence of selected adverse events (hearing and vestibular disorders, hepatic disorders, hyperglycemia, infusion reaction, neutropenia, rash and skin-related toxicity, thrombocytopenia, and venous embolic and thrombotic events) was summarized with descriptive statistics.
The effect of exposure on changes in selected laboratory values (aspartate transaminase, alanine transaminase, fasting glucose, total neutrophils, and platelets) was assessed by linear regression.

[3] = human, in vivo
[4] = tested on: metastatic pancreatic cancer patients; assay: Overall survival in baseline circulating biomarker subgroups of the phase 2 study; type: in vivo, human; conditions: plus gemcitabine
Description: To establish the relationship between levels of these baseline markers and overall survival, a Cox proportional hazard model was used to calculate hazard ratios (HR) using normalized log transformed marker concentrations. This analysis tests the risk of death associated with a unit increase in the normalized log baseline biomarker and this risk is expressed as a hazard ratio. Because of the small sample size, it is difficult to dissect prognostic associations from relationships that are modified by treatment with ganitumab relative to placebo, i.e., predictive. This is because the addition of treatment effect adds a variable to the analysis that compromises the power of the test masking significant predictive relationships that may exist. However even a prognostic relationship identified in this analysis is important because it informs the hypothesized relationship between circulating bioavailable ligands and the adaptation of the tumor to IGF-1R dependent progression, and in turn sensitivity to inhibitors that block IGF-1R or downstream signaling pathways.
This allows a direct test of the predictive value of using these markers in a dichotomized way to predict OS in pancreatic cancer patients that are treated with inhibitors of IGF-1R.
To represent these relationships Kaplan-Maier plots were generated that show the OS for the high and low subgroups by plotting the fraction of patients in each sub-group that survive against time.

Question: Which results are given for Ganitumab?
Answer: spontaneous bleeding in subjects with thrombocytopenia [1]: no cases of spontaneous bleeding; thrombocytopenia [1]: Some subjects exhibited grade 3 or 4 thrombocytopenia; dependence of the incidence of AEs on exposure [2]: not dependent on exposure; Q (L/h), inter-compartmental clearance, typical value [3]: 0.0261 L/h; Vp (L), peripheral volume of distribution, typical value [3]: 3.41 L; Median KM OS Time, Months ([4]; Free IGF-1 High subgroup): 11.14 Months; Median KM OS Time, Months ([4]; Free IGF-1 Low subgroup): 8.84 Months; Median KM OS Time, Months ([4]; IGF-2 High subgroup): 16 Months; Median KM OS Time, Months ([4]; IGF-2 Low subgroup): 5.59 Months; Median KM OS Time, Months ([4]; IGFBP-1 High subgroup): 5.59 Months; Median KM OS Time, Months ([4]; IGFBP-2 High subgroup): 5.52 Months; Median KM OS Time, Months ([4]; IGFBP-2 Low subgroup): 12.65 Months; Median KM OS Time, Months ([4]; IGFBP-3 High subgroup): 16 Months; Median KM OS Time, Months ([4]; IGFBP-3 Low subgroup): 5.52 Months; Median KM OS Time, Months ([4]; IGFBP-4 High subgroup): 12.09 Months; Median KM OS Time, Months ([4]; IGFBP-4 Low subgroup): 8.59 Months; Median KM OS Time, Months ([4]; Total IGF-1 High subgroup): 16 Months; Median KM OS Time, Months ([4]; Total IGF-1 Low subgroup): 4.67 Months
